# Only a part is listed here, and it is no random draw. Records with an inconclusive call do not appear. The source made the active and inactive calls. Calls come from the whole dose curve; as a rule, active = well fitted inhibition curve with a large enough effect; inconclusive = small, poorly fitted or top-dose-only effect; inactive = flat fitted curve, though single readings scatter.
# Test system: NanoLuc luciferase (engineered Oplophorus gracilirostris luciferase)
# Experiment: Biochemical coelenterazine-based NLuc counterscreen for small molecule modulators of PMP22 gene expression - Km assay;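 note: substrate at 15 µM coelenterazine with 5 min compound preincubation before enzyme addition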
# Details: secreted NLuc enzyme, coelenterazine luminescence, Km conditions; at 57.5 µM (top of the series)
# Source text: Assay Provider: Jim Inglese Ph.D. National Center for Advancing Translational Science, National Institutes of Health, Rockville, MD CMT is a heterogeneous group of neurological disorders that affect approximately 1 in 2,500 people. In particular, the most common form of CMT, CMT1A is genetically linked to the duplication of the PMP22 gene which leads to Schwann cell overexpression, thus manifesting itself as a typical case of dose-sensitive diseases. […] We can further discriminate the effect of all transcriptionally active molecules on PMP22 translation or stability with an assay that incorporates a short NLuc peptide (HiBiT) at the C-terminus of expressed PMP22 (S16(f8) PMP22-HiBiT) allowing alpha complementation and luminescence detection of membrane-associated PMP22 protein. […] Miniaturization of these assays to 1536-well plate format for quantitative high throughput screening (qHTS) yielded rich data sets immediately from the qHTS assay (S16(c9) Pmp22-F2sN), when compared with data from a cell viability assay (Cell TiterGlo) to identify compounds that decreased the output signals through cellular toxicity to streamline the selection process of actives for subsequent characterization using the HiBiT assay (S16(f8) PMP22-HiBiT). […]
# % is set by controls: 0 for no effect and ±100 for the full control effect.
structure (smiles),measurement,value
CC(C)(C)c1ccc(C(=O)NCC2(N3CCOCC3)CCCCC2)cc1,"activity change, negative = inhibition",inactive: 1.38%

# — PubChem BioAssay AID1508639 (National Center for Advancing Translational Sciences (NCATS), 2021)
